The data set relates to ovariectomy (OVX) rats. The experiment in a line: Blood biochemical analysis in ovariectomized rats. As to conditions: serum at 12 weeks post-surgery; mean ± SD, 5 rats.

“Sigma Anti-bonding Molecule Calcium gluconate [SAC gluconate]” returned a TC of 63.0 ± 15.3 mg/dL, a TG of 18.6 ± 6.7 mg/dL and a TP of 4.9 ± 0.2.

For the origin of these results see patent US20240299446A1, “COMPOSITION FOR PREVENTING, TREATING OR IMPROVING CALCIUM RELATED DEGENERATIVE DISEASES, OSTEOPOROSIS OR CANCERS COMPRISING SIGMA ANTI-BONDING MOLECULE CALCIUM GLUCONATE” (priority 2023, published 2024).
